From PubChem BioAssay (NCI)
Some tests of the compounds listed are not included; inactive here does not mean inactive elsewhere.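 Growth conditions: 96-well plates. Treatment: test compound, 48 hours, 5 concentrations. Analysis: linear interpolation between bracketing concentrations; unreached endpoints set to highest concentration. TGI marks complete inhibition of growth.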

Key:
Assay in all cases: inhibition of tumour cell growth, NCI panel, 48 h
[1] = tested on: OVCAR-4 ovarian
[2] = tested on: SR leukemia
[3] = tested on: 786-0 renal
[4] = tested on: SF-295 CNS
[5] = tested on: OVCAR-5 ovarian
[6] = tested on: K-562 leukemia
[7] = tested on: SF-539 CNS
[8] = tested on: SK-MEL-2 melanoma
[9] = tested on: HCT-116 colon
[10] = tested on: MALME-3M melanoma
[11] = tested on: UO-31 renal
[12] = tested on: HOP-62 NSCLC
[13] = tested on: NCI/ADR-RES ovarian
[14] = tested on: NCI-H226 lung
[15] = tested on: IGROV1 ovarian
[16] = tested on: RPMI-8226 leukemia
[17] = tested on: T-47D breast
[18] = tested on: NCI-H23 lung
[19] = tested on: CCRF-CEM leukemia
[20] = tested on: EKVX NSCLC
[21] = tested on: RXF 393 renal
[22] = tested on: MDA-N
[23] = tested on: SW-620 colon
[24] = tested on: ACHN renal
[25] = tested on: SF-268 CNS
[26] = tested on: M14 melanoma
[27] = tested on: TK-10 renal
[28] = tested on: KM12 colon
[29] = tested on: DU-145 prostate
[30] = tested on: SK-MEL-28 melanoma
[31] = tested on: COLO 205 colon
[32] = tested on: HCT-15 colon
[33] = tested on: SK-OV-3 ovarian
[34] = tested on: HT29 colon
[35] = tested on: A549 NSCLC
[36] = tested on: OVCAR-8 ovarian
[37] = tested on: UACC-257 melanoma
[38] = tested on: LOX IMVI melanoma
[39] = tested on: MOLT-4 leukemia
[40] = tested on: MDA-MB-231 breast
[41] = tested on: A498 renal
[42] = tested on: HS 578T breast
[43] = tested on: NCI-H522 lung
[44] = tested on: SN12C renal
[45] = tested on: MDA-MB-435
[46] = tested on: SNB-19 CNS
[47] = tested on: CAKI-1 renal
[48] = tested on: MCF7 breast
[49] = tested on: HL-60(TB) leukemia
[50] = tested on: SK-MEL-5 melanoma
[51] = tested on: SNB-75 CNS
[52] = tested on: NCI-H460 lung
[53] = tested on: OVCAR-3 ovarian
[54] = tested on: UACC-62 melanoma
[55] = tested on: HOP-92 NSCLC
[56] = tested on: PC-3 prostate
[57] = tested on: U251 CNS
[58] = tested on: BT-549 breast

`CCC1C(OC(=O)C(O)(c2ccccc2)c2ccccc2)C(C)(C)C1N1CCCCC1` (stereo not drawn) gave a TGI [1] of over 100 µM, a TGI [2] of over 100 µM and a TGI [3] of over 100 µM. It also gave a TGI [4] of over 100 µM, a TGI [5] of over 100 µM and a TGI [6] of over 100 µM. It also gave a TGI [7] of over 100 µM, a TGI [8] of over 100 µM and a TGI [9] of over 100 µM. For the same molecule, the TGI [10] was over 100 µM, the TGI [11] was over 100 µM and the TGI [12] was over 100 µM. It also gave a TGI [13] of over 100 µM, a TGI [14] of 72.8 µM and a TGI [15] of over 100 µM. It also gave a TGI [16] of over 100 µM, a TGI [17] of over 100 µM and a TGI [18] of over 100 µM. It also gave a TGI [19] of over 100 µM, a TGI [20] of over 100 µM and a TGI [21] of 73.2 µM. The TGI [22] was over 100 µM, the TGI [23] was over 100 µM and the TGI [24] was over 100 µM. It also gave a TGI [25] of over 100 µM, a TGI [26] of 31.1 µM and a TGI [27] of over 100 µM. It also gave a TGI [28] of over 100 µM, a TGI [29] of over 100 µM and a TGI [30] of over 100 µM. It also gave a TGI [31] of over 100 µM, a TGI [32] of over 100 µM and a TGI [33] of over 100 µM. It also gave a TGI [34] of 32 µM, a TGI [35] of over 100 µM and a TGI [36] of over 100 µM. For the same molecule, the TGI [37] was 86.7 µM, the TGI [38] was over 100 µM and the TGI [39] was over 100 µM. The TGI [40] was over 100 µM, the TGI [41] was over 100 µM and the TGI [42] was over 100 µM. The TGI [43] was 65.3 µM, the TGI [44] was over 100 µM and the TGI [45] was over 100 µM. It also gave a TGI [46] of over 100 µM, a TGI [47] of over 100 µM and a TGI [48] of over 100 µM. It also gave a TGI [49] of over 100 µM, a TGI [50] of 46.2 µM and a TGI [51] of over 100 µM. It also gave a TGI [52] of over 100 µM, a TGI [53] of over 100 µM and a TGI [54] of over 100 µM. The TGI [55] was over 100 µM, the TGI [56] was over 100 µM and the TGI [57] was over 100 µM. It also gave a TGI [58] of over 100 µM.
